Columns and labels:
[1] = target: Receptor-type tyrosine-protein phosphatase beta (Homo sapiens, UniProt P23467); assay: Inhibition of PTPRB
[2] = target: T1, Receptor-type tyrosine-protein phosphatase C (Homo sapiens, UniProt P08575); assay: Inhibition of PTPRC
T1 sequence (P08575 whole entry): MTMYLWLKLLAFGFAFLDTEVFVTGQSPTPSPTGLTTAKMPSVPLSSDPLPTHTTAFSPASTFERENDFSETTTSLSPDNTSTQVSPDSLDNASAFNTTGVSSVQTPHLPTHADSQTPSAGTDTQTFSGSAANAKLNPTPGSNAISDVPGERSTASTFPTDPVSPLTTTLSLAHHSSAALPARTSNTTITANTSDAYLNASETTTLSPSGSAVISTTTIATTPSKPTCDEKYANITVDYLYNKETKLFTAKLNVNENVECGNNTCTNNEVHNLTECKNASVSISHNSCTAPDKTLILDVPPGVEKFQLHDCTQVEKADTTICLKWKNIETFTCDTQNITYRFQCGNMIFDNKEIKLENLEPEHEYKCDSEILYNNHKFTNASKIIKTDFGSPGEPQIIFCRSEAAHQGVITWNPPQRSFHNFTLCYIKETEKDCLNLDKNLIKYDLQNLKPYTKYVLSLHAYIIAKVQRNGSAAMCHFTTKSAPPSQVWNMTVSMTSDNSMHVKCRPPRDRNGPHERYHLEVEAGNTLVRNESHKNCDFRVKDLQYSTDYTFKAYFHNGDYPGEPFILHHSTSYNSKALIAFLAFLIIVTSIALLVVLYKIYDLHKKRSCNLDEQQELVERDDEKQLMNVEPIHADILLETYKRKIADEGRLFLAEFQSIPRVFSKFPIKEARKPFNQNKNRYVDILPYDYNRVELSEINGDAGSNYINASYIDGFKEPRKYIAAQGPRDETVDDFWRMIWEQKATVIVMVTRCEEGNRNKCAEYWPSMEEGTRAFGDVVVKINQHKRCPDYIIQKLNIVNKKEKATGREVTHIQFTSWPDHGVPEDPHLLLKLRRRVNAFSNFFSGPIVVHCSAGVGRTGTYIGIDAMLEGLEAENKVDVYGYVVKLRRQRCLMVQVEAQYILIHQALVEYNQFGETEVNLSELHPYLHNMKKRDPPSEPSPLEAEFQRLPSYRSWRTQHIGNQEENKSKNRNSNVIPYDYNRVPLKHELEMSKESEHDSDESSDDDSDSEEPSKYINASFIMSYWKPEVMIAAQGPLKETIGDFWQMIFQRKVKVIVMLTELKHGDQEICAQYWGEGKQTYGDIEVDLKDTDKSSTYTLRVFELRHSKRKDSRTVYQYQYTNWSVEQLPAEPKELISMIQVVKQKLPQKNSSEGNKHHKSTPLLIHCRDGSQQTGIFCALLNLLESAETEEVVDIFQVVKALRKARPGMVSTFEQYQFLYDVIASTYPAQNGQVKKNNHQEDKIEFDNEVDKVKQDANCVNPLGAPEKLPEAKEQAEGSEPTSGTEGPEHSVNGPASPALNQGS

Amino acid sequences for entries named in this document (tags omitted). A change or cut given only in a name is not applied to a line headed by its entry.
UniProt P23467: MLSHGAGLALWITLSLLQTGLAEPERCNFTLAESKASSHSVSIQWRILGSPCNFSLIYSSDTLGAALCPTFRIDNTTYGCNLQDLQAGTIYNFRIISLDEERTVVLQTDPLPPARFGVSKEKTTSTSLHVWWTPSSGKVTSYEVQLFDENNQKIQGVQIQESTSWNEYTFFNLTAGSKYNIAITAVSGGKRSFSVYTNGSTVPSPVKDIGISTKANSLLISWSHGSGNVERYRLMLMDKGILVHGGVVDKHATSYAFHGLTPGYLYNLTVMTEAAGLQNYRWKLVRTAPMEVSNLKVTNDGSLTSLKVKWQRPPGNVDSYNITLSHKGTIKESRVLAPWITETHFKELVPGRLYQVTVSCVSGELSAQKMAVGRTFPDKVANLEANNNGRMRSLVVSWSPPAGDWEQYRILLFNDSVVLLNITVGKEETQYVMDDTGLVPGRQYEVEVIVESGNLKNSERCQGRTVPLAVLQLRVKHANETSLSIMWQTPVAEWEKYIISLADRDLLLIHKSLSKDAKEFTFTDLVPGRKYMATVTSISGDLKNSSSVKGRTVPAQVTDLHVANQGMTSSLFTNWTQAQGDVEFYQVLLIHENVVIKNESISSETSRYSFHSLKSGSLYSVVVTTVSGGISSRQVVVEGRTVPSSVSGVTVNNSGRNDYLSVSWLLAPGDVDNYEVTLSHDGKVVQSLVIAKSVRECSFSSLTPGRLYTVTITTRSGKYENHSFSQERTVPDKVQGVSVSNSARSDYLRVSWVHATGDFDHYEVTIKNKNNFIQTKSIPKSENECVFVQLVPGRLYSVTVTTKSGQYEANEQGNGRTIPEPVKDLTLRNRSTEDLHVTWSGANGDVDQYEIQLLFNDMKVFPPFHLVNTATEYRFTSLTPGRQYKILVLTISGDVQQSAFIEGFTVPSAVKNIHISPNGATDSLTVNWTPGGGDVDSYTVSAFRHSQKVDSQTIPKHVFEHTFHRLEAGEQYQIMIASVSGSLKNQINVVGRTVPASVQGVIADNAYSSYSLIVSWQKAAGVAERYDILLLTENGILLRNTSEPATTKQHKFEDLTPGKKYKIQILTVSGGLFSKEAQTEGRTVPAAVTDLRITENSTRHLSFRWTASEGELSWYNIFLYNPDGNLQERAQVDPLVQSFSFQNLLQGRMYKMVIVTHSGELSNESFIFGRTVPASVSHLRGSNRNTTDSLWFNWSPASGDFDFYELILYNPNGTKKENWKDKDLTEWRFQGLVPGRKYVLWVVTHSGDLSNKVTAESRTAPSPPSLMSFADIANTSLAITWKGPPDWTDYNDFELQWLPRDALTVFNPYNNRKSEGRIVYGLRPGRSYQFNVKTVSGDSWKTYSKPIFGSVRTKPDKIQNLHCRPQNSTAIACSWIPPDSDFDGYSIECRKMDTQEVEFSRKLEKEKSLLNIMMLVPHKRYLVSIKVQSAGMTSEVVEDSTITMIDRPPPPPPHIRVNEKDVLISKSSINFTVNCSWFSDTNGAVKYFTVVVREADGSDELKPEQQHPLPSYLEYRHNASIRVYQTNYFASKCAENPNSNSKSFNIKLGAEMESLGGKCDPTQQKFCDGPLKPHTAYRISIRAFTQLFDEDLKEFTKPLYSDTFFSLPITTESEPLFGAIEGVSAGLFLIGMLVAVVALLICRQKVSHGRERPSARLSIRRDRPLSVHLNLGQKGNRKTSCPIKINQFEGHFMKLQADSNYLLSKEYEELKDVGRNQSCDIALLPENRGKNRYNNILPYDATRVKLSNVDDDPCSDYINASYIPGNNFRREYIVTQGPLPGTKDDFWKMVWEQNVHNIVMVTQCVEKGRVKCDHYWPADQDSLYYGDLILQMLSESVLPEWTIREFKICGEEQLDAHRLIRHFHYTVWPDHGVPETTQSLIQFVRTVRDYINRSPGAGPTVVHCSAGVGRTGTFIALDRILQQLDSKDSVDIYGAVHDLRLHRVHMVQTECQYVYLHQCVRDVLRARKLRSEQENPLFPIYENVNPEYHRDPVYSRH

## O=C(O)C(=O)Nc1sc2c(c1C(=O)O)CCOC2
[1]
  Ki: 11 µM
[2]
  Ki: 53 µM

Reference: ChEMBL document CHEMBL1154600, “Knowledge-based characterization of similarity relationships in the human protein-tyrosine phosphatase family for rational inhibitor design” (J Med Chem, 2009)
